Three molecules from ChEMBL document CHEMBL4627396 (J Med Chem, 2020) can be followed below.

Amino acid sequences for entries named in this document (tags omitted). A change or cut given only in a name is not applied to a line headed by its entry.
UniProt P53355: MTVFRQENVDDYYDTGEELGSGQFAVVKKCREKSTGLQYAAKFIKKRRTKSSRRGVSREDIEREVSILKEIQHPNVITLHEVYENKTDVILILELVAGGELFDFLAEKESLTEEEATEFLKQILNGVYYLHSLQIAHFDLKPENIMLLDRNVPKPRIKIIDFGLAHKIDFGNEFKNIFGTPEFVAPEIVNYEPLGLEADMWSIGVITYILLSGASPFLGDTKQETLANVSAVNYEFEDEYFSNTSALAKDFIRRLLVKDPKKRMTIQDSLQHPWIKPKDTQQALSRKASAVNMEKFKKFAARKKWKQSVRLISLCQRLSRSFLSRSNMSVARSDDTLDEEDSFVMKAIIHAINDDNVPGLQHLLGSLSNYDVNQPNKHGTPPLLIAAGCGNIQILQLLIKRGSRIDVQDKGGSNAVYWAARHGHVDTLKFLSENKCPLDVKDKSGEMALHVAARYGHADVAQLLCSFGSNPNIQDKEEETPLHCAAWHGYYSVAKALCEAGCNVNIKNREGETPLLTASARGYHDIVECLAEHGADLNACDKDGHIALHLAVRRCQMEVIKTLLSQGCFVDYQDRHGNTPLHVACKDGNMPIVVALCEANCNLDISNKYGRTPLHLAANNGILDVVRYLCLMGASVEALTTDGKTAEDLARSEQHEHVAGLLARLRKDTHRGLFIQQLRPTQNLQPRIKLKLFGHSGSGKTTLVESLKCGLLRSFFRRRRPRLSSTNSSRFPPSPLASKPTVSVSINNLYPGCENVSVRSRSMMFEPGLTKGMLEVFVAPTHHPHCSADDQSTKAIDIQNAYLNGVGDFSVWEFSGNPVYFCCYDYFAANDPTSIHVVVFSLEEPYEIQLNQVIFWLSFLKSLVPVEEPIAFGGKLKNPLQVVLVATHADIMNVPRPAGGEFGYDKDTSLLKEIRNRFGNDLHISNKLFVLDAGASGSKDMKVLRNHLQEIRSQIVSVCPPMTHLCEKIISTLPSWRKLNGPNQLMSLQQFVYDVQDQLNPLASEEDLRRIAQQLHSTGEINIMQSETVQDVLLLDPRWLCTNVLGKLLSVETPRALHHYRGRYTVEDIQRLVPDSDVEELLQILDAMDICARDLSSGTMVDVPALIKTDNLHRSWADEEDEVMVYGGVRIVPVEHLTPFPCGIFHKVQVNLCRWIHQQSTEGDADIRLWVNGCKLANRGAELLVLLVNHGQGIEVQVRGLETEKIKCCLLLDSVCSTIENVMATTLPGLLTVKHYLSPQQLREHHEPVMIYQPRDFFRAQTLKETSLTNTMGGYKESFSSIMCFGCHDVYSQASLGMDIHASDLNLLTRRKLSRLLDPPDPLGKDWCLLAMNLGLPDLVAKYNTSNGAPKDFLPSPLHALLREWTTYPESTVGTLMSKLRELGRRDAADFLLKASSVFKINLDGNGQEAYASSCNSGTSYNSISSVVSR
UniProt P00519, whole entry: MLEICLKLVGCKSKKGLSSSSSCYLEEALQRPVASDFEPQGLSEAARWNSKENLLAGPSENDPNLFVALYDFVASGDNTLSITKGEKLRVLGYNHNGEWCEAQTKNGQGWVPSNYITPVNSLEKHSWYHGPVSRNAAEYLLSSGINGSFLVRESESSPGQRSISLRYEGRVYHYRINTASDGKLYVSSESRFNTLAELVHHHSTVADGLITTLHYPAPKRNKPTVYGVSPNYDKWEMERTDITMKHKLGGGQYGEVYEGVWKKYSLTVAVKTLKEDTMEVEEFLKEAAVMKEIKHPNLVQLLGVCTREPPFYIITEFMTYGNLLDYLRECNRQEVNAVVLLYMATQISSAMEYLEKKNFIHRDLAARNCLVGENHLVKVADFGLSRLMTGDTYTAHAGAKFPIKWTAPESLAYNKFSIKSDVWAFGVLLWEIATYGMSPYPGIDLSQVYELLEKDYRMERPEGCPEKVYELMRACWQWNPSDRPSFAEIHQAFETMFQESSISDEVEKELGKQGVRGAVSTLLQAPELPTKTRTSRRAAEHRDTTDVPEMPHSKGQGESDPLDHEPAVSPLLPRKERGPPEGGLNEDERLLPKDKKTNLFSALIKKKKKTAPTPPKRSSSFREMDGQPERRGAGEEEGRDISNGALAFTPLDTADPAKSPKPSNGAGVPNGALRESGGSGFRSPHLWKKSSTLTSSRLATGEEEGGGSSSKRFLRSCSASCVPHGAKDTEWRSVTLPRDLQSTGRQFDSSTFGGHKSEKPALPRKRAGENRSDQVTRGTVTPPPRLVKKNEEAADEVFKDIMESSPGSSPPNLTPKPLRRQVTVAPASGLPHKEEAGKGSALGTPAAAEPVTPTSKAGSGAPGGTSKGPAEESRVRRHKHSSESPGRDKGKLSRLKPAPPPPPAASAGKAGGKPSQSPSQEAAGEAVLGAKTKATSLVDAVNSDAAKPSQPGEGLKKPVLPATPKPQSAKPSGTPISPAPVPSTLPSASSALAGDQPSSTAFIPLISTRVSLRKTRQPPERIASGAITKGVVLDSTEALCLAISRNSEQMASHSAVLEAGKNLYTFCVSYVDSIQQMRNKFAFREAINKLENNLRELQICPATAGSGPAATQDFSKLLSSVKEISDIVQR
UniProt P11309, whole entry, looked up: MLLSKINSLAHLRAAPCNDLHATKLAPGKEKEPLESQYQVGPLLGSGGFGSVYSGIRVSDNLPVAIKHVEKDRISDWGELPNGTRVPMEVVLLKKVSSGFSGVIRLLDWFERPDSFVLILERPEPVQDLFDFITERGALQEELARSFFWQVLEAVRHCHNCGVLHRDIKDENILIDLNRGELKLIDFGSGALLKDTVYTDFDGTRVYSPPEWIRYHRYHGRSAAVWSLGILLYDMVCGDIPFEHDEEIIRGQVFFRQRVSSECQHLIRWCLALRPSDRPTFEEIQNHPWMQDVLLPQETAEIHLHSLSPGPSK
UniProt Q12809: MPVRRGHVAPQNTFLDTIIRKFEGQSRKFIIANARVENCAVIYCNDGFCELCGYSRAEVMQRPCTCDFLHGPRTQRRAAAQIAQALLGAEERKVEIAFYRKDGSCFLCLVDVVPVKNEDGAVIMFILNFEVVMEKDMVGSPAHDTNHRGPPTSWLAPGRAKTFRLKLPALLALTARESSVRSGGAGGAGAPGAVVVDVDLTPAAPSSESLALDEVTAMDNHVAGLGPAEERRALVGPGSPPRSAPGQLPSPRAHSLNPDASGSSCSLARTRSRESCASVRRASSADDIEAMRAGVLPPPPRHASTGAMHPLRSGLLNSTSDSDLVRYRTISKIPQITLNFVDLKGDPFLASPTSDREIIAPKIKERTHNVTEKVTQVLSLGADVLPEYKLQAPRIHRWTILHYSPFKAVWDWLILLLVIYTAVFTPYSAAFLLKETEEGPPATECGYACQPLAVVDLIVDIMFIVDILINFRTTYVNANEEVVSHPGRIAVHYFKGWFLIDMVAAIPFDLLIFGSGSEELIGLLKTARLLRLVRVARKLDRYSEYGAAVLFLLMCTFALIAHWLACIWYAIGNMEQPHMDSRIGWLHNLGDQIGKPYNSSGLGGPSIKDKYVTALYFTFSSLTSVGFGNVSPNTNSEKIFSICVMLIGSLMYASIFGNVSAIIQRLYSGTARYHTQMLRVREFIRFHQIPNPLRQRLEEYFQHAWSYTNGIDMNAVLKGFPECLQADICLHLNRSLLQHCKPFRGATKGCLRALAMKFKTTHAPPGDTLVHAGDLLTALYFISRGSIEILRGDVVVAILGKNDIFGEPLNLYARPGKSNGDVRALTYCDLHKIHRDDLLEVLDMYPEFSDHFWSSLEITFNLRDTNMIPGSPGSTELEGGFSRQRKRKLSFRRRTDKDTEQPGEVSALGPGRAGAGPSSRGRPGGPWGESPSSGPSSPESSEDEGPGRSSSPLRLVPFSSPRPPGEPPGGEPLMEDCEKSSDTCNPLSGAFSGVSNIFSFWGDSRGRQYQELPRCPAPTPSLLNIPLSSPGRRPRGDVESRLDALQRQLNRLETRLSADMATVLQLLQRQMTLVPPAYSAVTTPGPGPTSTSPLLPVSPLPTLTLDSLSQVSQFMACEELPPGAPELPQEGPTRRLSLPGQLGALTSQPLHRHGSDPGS
UniProt P11712, whole entry: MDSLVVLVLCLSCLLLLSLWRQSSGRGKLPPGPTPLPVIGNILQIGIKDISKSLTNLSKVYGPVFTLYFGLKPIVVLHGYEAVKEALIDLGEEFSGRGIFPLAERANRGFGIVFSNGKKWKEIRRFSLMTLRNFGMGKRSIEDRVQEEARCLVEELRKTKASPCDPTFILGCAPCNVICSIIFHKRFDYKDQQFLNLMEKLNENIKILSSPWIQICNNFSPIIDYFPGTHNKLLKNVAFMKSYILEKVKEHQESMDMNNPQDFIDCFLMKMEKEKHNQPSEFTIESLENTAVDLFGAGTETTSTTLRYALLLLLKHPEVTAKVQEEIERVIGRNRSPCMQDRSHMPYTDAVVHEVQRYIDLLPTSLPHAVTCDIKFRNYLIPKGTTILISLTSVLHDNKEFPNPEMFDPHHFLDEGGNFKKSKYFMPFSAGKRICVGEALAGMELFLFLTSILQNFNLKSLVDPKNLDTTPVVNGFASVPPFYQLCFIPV
UniProt Q16584: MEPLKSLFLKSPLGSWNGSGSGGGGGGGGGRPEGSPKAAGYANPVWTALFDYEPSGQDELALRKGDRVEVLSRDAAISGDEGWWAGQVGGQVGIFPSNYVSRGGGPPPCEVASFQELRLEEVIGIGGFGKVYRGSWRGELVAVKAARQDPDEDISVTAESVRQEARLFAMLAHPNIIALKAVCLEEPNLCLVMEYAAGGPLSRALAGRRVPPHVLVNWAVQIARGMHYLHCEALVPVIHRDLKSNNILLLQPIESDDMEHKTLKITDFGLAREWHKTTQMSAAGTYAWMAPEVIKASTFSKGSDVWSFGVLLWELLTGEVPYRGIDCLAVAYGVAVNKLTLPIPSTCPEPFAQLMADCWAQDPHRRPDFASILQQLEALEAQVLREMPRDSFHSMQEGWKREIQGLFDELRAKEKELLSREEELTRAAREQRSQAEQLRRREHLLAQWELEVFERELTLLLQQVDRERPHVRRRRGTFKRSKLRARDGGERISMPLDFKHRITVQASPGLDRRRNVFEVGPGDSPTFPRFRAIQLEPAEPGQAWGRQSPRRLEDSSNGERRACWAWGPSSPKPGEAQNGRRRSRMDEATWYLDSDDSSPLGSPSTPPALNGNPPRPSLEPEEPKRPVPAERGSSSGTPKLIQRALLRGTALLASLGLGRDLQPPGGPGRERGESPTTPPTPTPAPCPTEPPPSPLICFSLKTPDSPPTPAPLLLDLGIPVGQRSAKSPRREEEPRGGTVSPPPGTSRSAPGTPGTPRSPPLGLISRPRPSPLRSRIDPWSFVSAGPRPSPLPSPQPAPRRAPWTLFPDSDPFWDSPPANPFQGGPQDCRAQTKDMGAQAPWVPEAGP
UniProt O60331: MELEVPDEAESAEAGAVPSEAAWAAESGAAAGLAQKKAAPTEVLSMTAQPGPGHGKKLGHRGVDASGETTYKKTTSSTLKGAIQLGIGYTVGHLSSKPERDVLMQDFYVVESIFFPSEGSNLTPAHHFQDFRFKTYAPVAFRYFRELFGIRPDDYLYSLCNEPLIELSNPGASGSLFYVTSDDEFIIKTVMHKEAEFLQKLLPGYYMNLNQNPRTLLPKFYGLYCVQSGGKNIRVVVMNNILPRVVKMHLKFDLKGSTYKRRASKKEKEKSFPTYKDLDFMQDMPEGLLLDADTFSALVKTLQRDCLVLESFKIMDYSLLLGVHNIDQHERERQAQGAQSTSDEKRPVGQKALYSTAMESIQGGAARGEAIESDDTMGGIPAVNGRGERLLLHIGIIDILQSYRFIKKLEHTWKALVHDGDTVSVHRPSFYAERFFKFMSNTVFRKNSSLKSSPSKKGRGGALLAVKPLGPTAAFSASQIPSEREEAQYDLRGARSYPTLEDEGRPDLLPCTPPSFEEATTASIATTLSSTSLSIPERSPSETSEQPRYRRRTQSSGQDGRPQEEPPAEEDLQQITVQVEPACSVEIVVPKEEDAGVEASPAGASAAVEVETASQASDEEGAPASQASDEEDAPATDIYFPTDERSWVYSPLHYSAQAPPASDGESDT
UniProt P33261, whole entry: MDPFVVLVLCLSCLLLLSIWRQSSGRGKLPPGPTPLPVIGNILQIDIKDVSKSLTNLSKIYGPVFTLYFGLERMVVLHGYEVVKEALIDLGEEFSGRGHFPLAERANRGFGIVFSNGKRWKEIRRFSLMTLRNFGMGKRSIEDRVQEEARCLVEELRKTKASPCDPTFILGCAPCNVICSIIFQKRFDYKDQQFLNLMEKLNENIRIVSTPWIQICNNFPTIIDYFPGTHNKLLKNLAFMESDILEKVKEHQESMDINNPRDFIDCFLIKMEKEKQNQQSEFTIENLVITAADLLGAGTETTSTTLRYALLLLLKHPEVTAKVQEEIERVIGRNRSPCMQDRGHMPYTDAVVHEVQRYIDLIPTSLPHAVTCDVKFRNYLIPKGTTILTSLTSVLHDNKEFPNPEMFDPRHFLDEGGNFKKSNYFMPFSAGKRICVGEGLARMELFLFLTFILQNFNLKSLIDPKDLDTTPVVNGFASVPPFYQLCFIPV

The target of data set [1] is Death-associated protein kinase 1 (Homo sapiens) (UniProt P53355). The data set can be described thus: Binding affinity to DAPK1 (unknown origin) assessed as change in melting temperature at 10 uM by SYPRO Orange dye based fluorescence assay.
Data set [2] has as its target Casein kinase II subunit alpha (Homo sapiens) (UniProt P68400). The data set can be described thus: Binding affinity to CK2a (unknown origin) assessed as change in melting temperature at 10 uM by SYPRO Orange dye based fluorescence assay.
The target in data set [3] is Tyrosine-protein kinase ABL1 (Homo sapiens) (UniProt P00519). Nature of the data set: Binding affinity to ABL (unknown origin) assessed as change in melting temperature at 10 uM by SYPRO Orange dye based fluorescence assay.
The target of data set [4] is Serine/threonine-protein kinase pim-1 (Homo sapiens) (UniProt P11309). Nature of the data set: Binding affinity to PIM1 (unknown origin) assessed as change in melting temperature at 10 uM by SYPRO Orange dye based fluorescence assay.
Data set [5] concerns the target Tyrosine-protein kinase SYK (Homo sapiens, UniProt P43405). The following applies: 10 uM.
The nature of data set [6]: in vivo. Particulars: CD-1, mouse, po, 50 mg/kg.
Data set [7] can be described thus: in vivo. Particulars: Crl:CD Sprague-Dawley, rat, po, 7 mg/kg.
Data set [8] is described as follows: in vivo. The following applies: Crl:CD Sprague-Dawley, rat, po, 7 mg/kg. This is another data set of the same source.
Data set [9] is described as follows: in vivo. The following applies: CD-1, mouse, po, 100 mg/kg.
The nature of data set [10]: in vivo. The following applies: CD-1, mouse, po, 25 mg/kg.
Data set [11] can be described thus: in vivo. Particulars: CD-1, mouse, iv, 2 mg/kg.
Data set [12] can be described thus: in vivo. Particulars: CD-1, mouse, po, 10 mg/kg.
A short description of data set [13]: in vivo. Particulars: CD-1, mouse, po, 50 mg/kg. The source holds these as a separate data set.
The target of data set [14] is Voltage-gated inwardly rectifying potassium channel KCNH2 (Homo sapiens, UniProt Q12809).
Data set [15] has as its target Cytochrome P450 2C9 (Homo sapiens, UniProt P11712).
Data set [16] can be described thus: in vivo. The following applies: CD-1, mouse, po, 100 mg/kg. The source holds these as a separate data set.
Data set [17] is described as follows: in vivo. Particulars: CD-1, mouse, po, 10 mg/kg. This is another data set of the same source.
Data set [18] is described as follows: in vivo. Particulars: Crl:CD Sprague-Dawley, rat, po, 7 mg/kg. The source holds these as a separate data set.
Data set [19] in a line: in vivo. Particulars: CD-1, mouse, iv, 2 mg/kg. This is another data set of the same source.
Data set [20] can be described thus: in vivo. The following applies: CD-1, mouse, po, 200 mg/kg.
Data set [21] is described as follows: in vivo. The following applies: CD-1, mouse, iv, 2 mg/kg. The source holds these as a separate data set.
The target in data set [22] is T1, Dual specificity mitogen-activated protein kinase kinase 5 (Homo sapiens, UniProt Q13163).
T1 sequence (Q13163 whole entry): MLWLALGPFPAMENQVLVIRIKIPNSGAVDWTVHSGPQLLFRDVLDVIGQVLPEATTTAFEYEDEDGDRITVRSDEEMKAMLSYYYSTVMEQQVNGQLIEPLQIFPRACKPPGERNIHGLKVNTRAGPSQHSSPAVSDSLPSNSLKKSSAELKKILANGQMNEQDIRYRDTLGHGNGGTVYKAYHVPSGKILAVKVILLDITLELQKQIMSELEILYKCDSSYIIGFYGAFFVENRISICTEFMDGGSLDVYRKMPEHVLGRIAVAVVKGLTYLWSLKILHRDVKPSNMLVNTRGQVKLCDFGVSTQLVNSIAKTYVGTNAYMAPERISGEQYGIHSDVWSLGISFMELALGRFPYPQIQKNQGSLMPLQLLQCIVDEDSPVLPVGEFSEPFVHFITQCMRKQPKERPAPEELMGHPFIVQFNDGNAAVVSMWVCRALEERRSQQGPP

A short description of data set [23]: in vivo. Particulars: CD-1, mouse, po, 100 mg/kg. The source holds these as a separate data set.
Data set [24] can be described thus: in vivo. Particulars: CD-1, mouse, po, 25 mg/kg. This is another data set of the same source.
The target of data set [25] is Mitogen-activated protein kinase kinase kinase 11 (Homo sapiens, UniProt Q16584).
Data set [26] addresses Phosphatidylinositol 4-phosphate 5-kinase type-1 gamma (Homo sapiens, UniProt O60331).
Data set [27] can be described thus: in vivo. The following applies: CD-1, mouse, po, 10 mg/kg. The source holds these as a separate data set.
Data set [28] in a line: in vivo. Particulars: CD-1, mouse, iv, 2 mg/kg. The source holds these as a separate data set.
Data set [29] can be described thus: in vivo. The following applies: CD-1, mouse, po, 50 mg/kg. The source holds these as a separate data set.
In data set [30] the target is Calcium/calmodulin-dependent protein kinase type 1 (Homo sapiens, UniProt Q14012).
A short description of data set [31]: in vivo. Particulars: CD-1, mouse, po, 25 mg/kg. The source holds these as a separate data set.
Data set [32] concerns the target Cytochrome P450 2C19 (Homo sapiens, UniProt P33261).
The nature of data set [33]: in vivo. The following applies: CD-1, mouse, po, 200 mg/kg. The source holds these as a separate data set.
Data set [34] is described as follows: physchem.
Data set [35] can be described thus: in vivo. The following applies: CD-1, mouse, iv, 2 mg/kg. This is another data set of the same source.
Data set [36] can be described thus: in vivo. The following applies: CD-1, mouse, po, 200 mg/kg. This is another data set of the same source.
Data set [37] can be described thus: in vivo. The following applies: CD-1, mouse, po, 25 mg/kg. The source holds these as a separate data set.
Data set [38] is described as follows: in vivo. The following applies: Crl:CD Sprague-Dawley, rat, po, 7 mg/kg. This is another data set of the same source.
Data set [39] can be described thus: in vivo. Particulars: CD-1, mouse, po, 200 mg/kg. The source holds these as a separate data set.
A short description of data set [40]: in vivo. Particulars: CD-1, mouse, po, 10 mg/kg. This is another data set of the same source.

In brackets after ≈: the same amount, converted by molar mass.

For `CC(C)c1cc(Nc2nc(N3CCC[C@H](N)C3)ncc2C(N)=O)cc(C(C)C)c1`, the shift in melting temperature (ΔTm) came to 4.65 °C in data set [1], 4.05 °C in data set [2] and 5.95 °C in data set [3].

Regarding `NC(=O)c1cnc(N2CCC[C@H](N)C2)nc1Nc1cc(C(F)(F)F)cc(C(F)(F)F)c1`, the ΔTm is 6.07 °C in data set [1]; 3.98 °C in [4]; 5.89 °C in [2]; 4.13 °C in data set [5]; 3.88 °C in data set [3].

Consider `CC(C)(C#N)c1cc(Nc2nc(N3CCC[C@H](N)C3)ncc2C(N)=O)cc(C(C)(C)C#N)c1`, for which the bioavailability in data set [6] was 88%; in [7], 73%; in data set [9], 94%; in data set [27] it was 41%; in data set [31], 37%; in data set [36] it was 45%. Besides, the Cmax in data set [8] was 136 ng/mL; in data set [11], 747 ng/mL; in data set [12], 196 ng/mL; in data set [13], 1290 ng/mL; in data set [16], 2220 ng/mL; in data set [24], 453 ng/mL. This molecule returned a Cmax in [39] of 3060 ng/mL. Further, the half-life in data set [10] is 102 min; in [17], 72 min; in data set [19] it was 138 min; in data set [33], 282 min; in data set [38], 198 min. The ΔTm in data set [1] worked out at 3.46 °C; in data set [4], 0.81 °C; in data set [2] it was 0.56 °C; in [3], 0.27 °C. Moreover, the IC50 worked out at 7.1 µM in [14]; 6 µM in [15]; 7.68 µM in [22]; 7.86 µM in [25]; 7.12 µM in [26]; 2 nM in data set [30]. For the same molecule, in [32], the IC50 amounted to 1000 nM. The AUC(0-inf) in [18] is 684 ng·h/mL; in [20], 17500 ng·h/mL; in data set [23], 18300 ng·h/mL; in data set [28] it was 387 ng·h/mL; in [29], 8500 ng·h/mL; in [37], 1780 ng·h/mL. The AUC(0-inf) in data set [40] came to 790 ng·h/mL. In addition, the Vd in data set [21] was determined as 4.9 L/kg. Further, the solubility in data set [34] came out at 52 µM (≈ 23.2 µg/mL). Further, the clearance in data set [35] was 88 mL/min/kg.
